Drawing on patent US12048783B2, “2,4-disubstituted pyridines as malodor counteracting ingredients” (FIRMENICH SA, priority 2017, dated 2024), this text covers EC50 for one compound.

This assay has as its system Olfr740 (indole olfactory receptor). Put plainly: Inhibition of indole-induced activity of olfactory receptor Olfr740 in a stable cell line (FIG. 4 panel b). In kind it is cell-based, mouse. The settings on record: antagonism, dose-dependent decrease of receptor activity, single activating concentration of indole, FIG. 4B, read-out: Olfr742 (text: Olfr740) EC50.

The EC50 is the concentration needed to bring the measured effect to its halfway point. Consider `CCCCCc1cc(C)ccn1` [Capsydine], for which the EC50 was determined as 309 µM.
